The values that follow come from patent publication EP4714469A1, “PHARMACEUTICAL COMPOSITION COMPRISING ANTIBODY-DRUG CONJUGATE” (CSPC Megalith Biopharmaceutical Co., Ltd., priority 2023, dated 2024).

The test system of one series is SK-BR-3 cells. Put plainly: In-vitro proliferation inhibition, resazurin (procedure 1). Format: cell-based, human. The settings on record: 3 days. As to the method: The object of this assay was to detect the inhibitory activity of the antibody-drug conjugate of the present invention on the in-vitro proliferation of SK-BR-3 (ATCC/HTB-30) tumor cells, human colorectal cancer cells DiFi, human lung cancer gefitinib resistant cell PC9-GR, or human lung cancer mutant cell PC-9 (Dell9-T790M-C797S). The cells were treated in vitro with compounds of different concentrations. After culture, resazurin was added to read the fluorescence values of ex550nm/em610nm, and the data were fitted with four parameters to obtain the IC50 values, thereby calculating the biological activities of the compound.
• 3.1 Culture medium: DMEM, 10% FBS, 1×bispecific antibody • 3.2 Cell culturing: Frozen SK-BR-3/MDA-MB-468 cells were taken out of liquid nitrogen and revived in a 75cm^2 culture vessel for culturing. […]
• 3.8.1 After incubation, 20µL of 0.03% resazurin (1×PBS diluted) was added to each well and gently shaken for 10-15 seconds. • 3.8.2 After incubating at 37°C for 3-4 hours, the plate was read using a microplate reader with the following parameters: • Exciting light: 550nm • Emitting light: 610nm • Integration time: 50 • Shaking: 15 seconds, vortex • Reading: top reading • Number of reading/well: 1 • Gain: optimization setting (between 35 and 42) […]
(In general: The colour change of resazurin is a common sign of viable cells or microbes.)

For series [1], the system named is SK-BR-3 and HEK293-Luc cells. The series can be described thus: Assay 7: in vitro bystander effect, positive cell co-culture. Type of series: cell-based. The settings on record: 4 days. As to the method: (§1) The released small molecule payloads could cause apoptosis of co-cultured negative cells in the periphery, known as the bystander effect. In this study, reporter gene cells HEK293-Luc were co-cultured with positive cell line SK-BR-3 and negative control cell MDA-MB-468 for four days. The effect of released small molecule payloads on the growth of HEK293-Luc was determined by adding a chemiluminescent substrate.
(§2) • 3.3.1 When the cell confluence reached 90%, SK-BR-3, MDA-MB-468, and HEK293-Luc cells were digested with trypsin and collected separately, and the cells were resuspended in their respective media. • 3.3.2 The resuspended target cells were gently pipetted several times to form a single-cell suspension. […] Fifty microliters per well were added to a 96-well transparent flat-bottom culture plate. […] Fifty microliters per well were added to the cell-inoculated 96-well transparent flat-bottom culture plate and placed in a 37°C CO2 incubator for 4 days. • 3.3.5 After incubation, the plate was removed from the incubator, and the temperature was allowed to equilibrate to room temperature. Bright-Glo™ Luciferase Assay System was added to the plate at 100µL per well, and chemiluminescence was read after 5-15 minutes in the dark. • 4. […] See Table 13 and Figure 17 for the test result. Table 13: Inhibition rate of the antibody-drug conjugates of the present invention on fluorescent cells

In series [2] the test system is MDA-MB-468 and HEK293-Luc cells. The series can be described thus: Assay 7: in vitro bystander effect, negative cell co-culture. Format: cell-based. The settings on record: 4 days. As to the method: as §1, §2
For series [3] the following is noted: 0.5% BSA-PBS, 37°C.

Where two headings read alike, the source gives them in different places.

In the case of “DP001-DXD ADC (DAR=7.0): DP001 conjugated with commercially available Deruxtecan [reference compound]”, the IC50 value with SK-BR-3 cells is 7.2481 ng/mL. In addition, the Inhibition rate in series [1] (SKBR3+HEK293-GLP1, 100 ng/ml) was 10.0%; in series [1] (SKBR3+HEK293-GLP1, 500 ng/ml), 16.4%; in series [1] (SKBR3+HEK293-GLP1, 1000 ng/ml), 17.1%; in series [2] (MDA-MB-468+HEK293-GLP1, 100 ng/ml), 3.4%; in series [2] (MDA-MB-468+HEK293-GLP1, 500 ng/ml), 2.6%; in series [2] (MDA-MB-468+HEK293-GLP1, 1000 ng/ml), 2.7%. Also, the “Dropping rate (%)” value turned out to be 0.02% in series [3] (0 h); 0.16% in series [3] (120 h); 0.14% in series [3] (168 h); 0.41% in series [3] (336 h); 3.90% in series [3] (504 h); 0.16% in series [3] ([…]).
